Assays:
[1] = test system: RES-LTC chondrosarcoma cell line; test: Modified MTT assay for metabolic activity; type: cell-based; settings: 1-10 mM, 48 hour timepoint, FIG. 3
Experimental: Assays: Modified MTT assay for metabolic activity (absorbance).
Assay data analysis: Expressed as % of the positive controls for MTT and picogreen. MTT absorbance measures then normalized to the μgDNA/ml generated by the picogreen assay.
Cell cultures: RES-LTC chondrosarcoma cell line. Expresses hyaline-like chondrocyte phenotype and reliably produces large, homogeneous cell populations
Cell cultures in 96 well plates. Each compound, at a fixed concentration, was added in triplicate for each assay. MTT and picogreen assays in separate plates (assays interfere with each other). All plates treated together. Assays run at 48 hour timepoint. Microscopy performed to confirm findings.

[2] = compared with dendrimers containing more nitroxyl groups; cited from earlier work
rabbit stifle joints = test: Single intra-articular injection toxicity model in rabbit stifles
Excerpt: Rabbits were euthanized two weeks post-injection. Both left and right stifles were harvested and immediately fixed in 10% neutral buffered formalin, then set for histological processing. Five-micron thick slides from each knee were stained with Hematoxylin & Eosin and Safranin-O.

Citric Acid Salt of DAB-4 Linked Nitroxide [DAB-4 linked nitroxide citrate]
MTT metabolic activity [1]: more metabolic activity than the maleate or tartrate salts | relaxivity [2]: lower relaxivity than such dendrimers containing more nitroxyl-groups | clinical signs of inflammation or lameness (rabbit stifle joints; single intra-articular injection, two weeks observation): No animals presented clinical signs of inflammation or lameness | Modified Mankin scoring (structural damage / joint degeneration) (rabbit stifle joints; two weeks post-injection, histology, FIG. 6): did not uncover any signs of structural damage and/or degenerative response
